{"source": "PubChem BioAssay AID504690", "about": "(Sanford-Burnham Center for Chemical Genomics, 2011)", "note": "Only a part is listed here, and it is no random draw. Some results for these compounds are left out of this collection, so the calls shown say nothing about other tests. Activity calls are given as the source filed them.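 The calls were made as follows: active = inhibition reaching at least a set limit at 20 µM in the primary screen (cut at about 59% in these data); inactive = the rest.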", "data": [{"test_system": "glucose-6-phosphate dehydrogenase-6-phosphogluconolactonase (Plasmodium falciparum 3D7)", "test": "inhibition of malaria parasite G6PD (PfGluPho) – biochemical, fluorescence intensity, uHTS, primary screen (AID 504690);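 also: 0% = DMSO wells with substrate and 100% = DMSO wells lacking glucose-6-phosphate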", "conditions": "PfGluPho enzyme, NADPH resazurin-diaphorase fluorescence; at 20 µM; hits give high values", "values": [{"smiles": "COc1ccc(Br)c(C(=O)NCC2(N3CCCCC3)CCCCC2)c1", "inhibition": "inactive: -8.77%"}, {"smiles": "C=C(C)C#CC(O)(C(=O)OC1CCN(C)CC1)c1ccccc1", "note": "(stereo unspecified)", "inhibition": "inactive: -4.83%"}, {"smiles": "CN(C)c1cccc(C(=O)NCC2(N(C)C)CCCCC2)c1", "inhibition": "inactive: -3.78%"}, {"smiles": "CC(C)Oc1ccc(C(=O)NCC2(N(C)C)CCCCC2)cc1", "inhibition": "inactive: -9.29%"}, {"smiles": "O=C(OCCN1CCCC1)C(O)(c1ccccc1)c1ccccc1", "inhibition": "inactive: 4.3%"}, {"smiles": "O=C(OC1CN2CCC1CC2)C(CO)(c1ccccc1)c1ccccc1", "note": "(stereo unspecified)", "inhibition": "inactive: -19.6%"}, {"smiles": "COc1cccc(C(=O)NCC2(N3CCCCC3)CCCCC2)c1", "inhibition": "inactive: 5.12%"}, {"smiles": "COc1ccc(Cl)cc1C(=O)NCC1(N(C)C)CCCCC1", "inhibition": "inactive: 1.83%"}, {"smiles": "O=C(NCC1(N2CCCCC2)CCCCC1)c1cccc(Cl)c1", "inhibition": "inactive: -23.7%"}, {"smiles": "CN(C)C1(CNC(=O)c2ccc(Br)cc2)CCCCC1", "inhibition": "inactive: -4.95%"}, {"smiles": "COc1cc(C(=O)NCC2(N(C)C)CCCCC2)c([N+](=O)[O-])cc1OC", "inhibition": "inactive: -1.56%"}, {"smiles": "C=CCN1CCN(CCOC(=O)C(O)(c2ccccc2)c2ccccc2)CC1", "inhibition": "inactive: -14.9%"}, {"smiles": "O=C(NCC1(N2CCCCC2)CCCCC1)c1cc(F)c(F)cc1Cl", "inhibition": "inactive: 0.44%"}, {"smiles": "CCN1CCCC(OC(=O)C2(O)c3ccccc3C=Cc3ccccc32)C1", "note": "(stereo unspecified)", "inhibition": "inactive: -2%"}, {"smiles": "Cc1cc(C(=O)NCC2(N3CCCCC3)CCCCC2)ccc1[N+](=O)[O-]", "inhibition": "inactive: 9.65%"}, {"smiles": "O=C(NCC1(N2CCCCC2)CCCCC1)c1cccc(Br)c1", "inhibition": "inactive: -11.7%"}, {"smiles": "COc1ccc(C(=O)NCC2(N(C)C)CCCCC2)cc1", "inhibition": "inactive: -3.22%"}, {"smiles": "Cc1ccccc1C(=O)NCC1(N2CCCCC2)CCCCC1", "inhibition": "inactive: 3.84%"}, {"smiles": "CN(C)c1ccc(C(=O)NCC2(N(C)C)CCCCC2)cc1", "inhibition": "inactive: 4.75%"}, {"smiles": "CN(C)C1CCCC1OC(=O)C(O)(c1ccccc1)c1ccccc1", "note": "(stereo unspecified)", "inhibition": "inactive: 8.24%"}, {"smiles": "CC(C)N1C(=O)CC2(CCN(CCOC(=O)C(O)(c3ccccc3)c3ccccc3)CC2)C1=O", "inhibition": "inactive: 5.56%"}, {"smiles": "CCN(CC)CC(C)C(C)OC(=O)C(O)(c1ccccc1)c1ccccc1", "note": "(stereo unspecified)", "inhibition": "inactive: -0.11%"}, {"smiles": "COc1cc(SC)ccc1C(=O)NCC1(N(C)C)CCCCC1", "inhibition": "inactive: 0.7%"}, {"smiles": "Cc1ccc(C(=O)NCC2(N3CCCCC3)CCCCC2)cc1", "inhibition": "inactive: -19%"}, {"smiles": "O=C(NCC1(N2CCCCC2)CCCCC1)c1cc([N+](=O)[O-])ccc1Cl", "inhibition": "inactive: 12.1%"}, {"smiles": "CN1[C@@H]2CC[C@H]1CC(OC(=O)C(O)(c1ccccc1)c1ccccc1)C2", "note": "(stereo partly specified)", "inhibition": "inactive: -7.96%"}]}]}
